According to patent US20100175140A1, “Leucine-rich repeat kinase (LRRK2) drosophila model for parkinson's disease: wildtype1 (WT1) and G2019S mutant flies” (The Johns Hopkins University, priority 2008, published 2010):

Tested on: TH-positive neurons of mutant LRRK2 flies
Experiment: Anti-TH whole-mount brain immunostaining and counting of TH-positive neurons
Type: in vivo, Drosophila melanogaster
Details: mutant LRRK2 flies treated with L-DOPA; data not shown
Description: Fluorescent immunostaining was performed on whole-mount dissected adult brain (23, 35) at 1, 21, 35, and 49 weeks of age. Cohorts of six to eight flies per genotype were used at each time point for immunostaining. The dissected brains were mounted in Vectashield (Vector Laboratories). Rabbit polyclonal anti-TH (Chemicon), mouse monoclonal anti-TH (Immunostar), anti-5-HT (Sigma), anti-elav (Developmental Studies Hybridoma Bank), and anti-Flag-antibodies were used as the primary antibodies. Alexa Fluor 488 goat anti-mouse IgG and Alexa Fluor 568 goat anti-mouse IgG (Invitrogen) were used as secondary antibodies. The numbers of DA and 5-HT neurons were scored in whole-mount brains under fluorescent (Zeiss LSM 250) and/or confocal microscopy (Zeiss LSM 510). For quantification of loss of anti-elav staining in brain, entire brain sections were digitized with an image analysis system. NIH Image J software was used to measure the optical density of anti-elav staining within the entire brain section (six brain sections per experimental group).

N[C@@H](Cc1ccc(O)c(O)c1)C(=O)O [L-DOPA]
loss of TH-positive neurons: did not prevent
